Reference: PubChem BioAssay AID720582 (The Scripps Research Institute Molecular Screening Center, 2013)
The entries are a selection whose mix differs from that of the whole data set. Active and inactive are the calls of the source.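 The calls were made as follows: active = inhibition above a per-campaign cutoff equal to the mean of compounds falling between control-based bounds plus 3 SD (cut at about 20% in these data); inactive = the rest.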

The chains behind the UniProt entries cited, without tags or fusion partners. Where a name states a change or a piece, a line headed by the entry shows the natural chain unless it says otherwise.
UniProt O14672: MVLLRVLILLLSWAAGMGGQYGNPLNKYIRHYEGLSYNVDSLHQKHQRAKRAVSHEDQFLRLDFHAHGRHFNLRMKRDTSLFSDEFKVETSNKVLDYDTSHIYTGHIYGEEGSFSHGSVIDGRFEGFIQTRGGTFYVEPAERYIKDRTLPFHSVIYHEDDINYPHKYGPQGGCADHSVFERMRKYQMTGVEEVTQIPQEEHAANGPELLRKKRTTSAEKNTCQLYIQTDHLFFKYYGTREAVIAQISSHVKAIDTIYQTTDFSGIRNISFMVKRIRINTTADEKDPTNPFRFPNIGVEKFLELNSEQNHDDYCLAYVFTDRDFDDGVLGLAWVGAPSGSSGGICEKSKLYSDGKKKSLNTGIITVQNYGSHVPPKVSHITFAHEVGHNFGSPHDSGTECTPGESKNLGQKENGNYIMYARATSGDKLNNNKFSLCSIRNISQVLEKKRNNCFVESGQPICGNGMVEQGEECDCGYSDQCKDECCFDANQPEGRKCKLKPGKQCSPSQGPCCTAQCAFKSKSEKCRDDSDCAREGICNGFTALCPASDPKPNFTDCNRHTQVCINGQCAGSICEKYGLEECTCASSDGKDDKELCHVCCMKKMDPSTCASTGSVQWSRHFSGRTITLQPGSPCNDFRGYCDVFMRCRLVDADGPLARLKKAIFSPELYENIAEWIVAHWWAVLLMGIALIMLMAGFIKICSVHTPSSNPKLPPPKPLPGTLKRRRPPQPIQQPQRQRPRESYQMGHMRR

Biological target: Disintegrin and metalloproteinase domain-containing protein 10 (Homo sapiens) (UniProt O14672)
Assay: blockers of ADAM10 peptide cleavage – biochemical, QFRET, HTS, primary screen (AID 720582);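 also: 0% = DMSO wells while the 100% control is not disclosed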
Settings: recombinant ADAM10, EDANS/DABCYL FRET peptide cleavage, 3 h; at 7 µM; stronger effect = higher value

Row | SMILES | inhibition
1 | COP(=O)(OC)N1CC1c1ccccc1 (stereo not drawn) | inactive: 8.69%
2 | CCCCOc1ccc(C(=O)NCC2(N3CCCCC3)CCCCC2)cc1OC | inactive: -7.61%
3 | Cc1cc(SC(NC(=O)c2ccccc2)C(Cl)(Cl)Cl)nc(C(C)C)n1 (stereo not drawn) | inactive: -3.02%
4 | CCOC(=O)Nc1ccc([As](=O)(O)O)c(O)c1 | inactive: 1.41%
5 | O=C(O)C(O)c1ccc(N(CCCl)CCCl)cc1 (stereo not drawn) | inactive: 0.77%
6 | CC1CCNP(=O)(N(CCCl)CCCl)O1 (stereo not drawn) | inactive: 1.96%
7 | O=P(Nc1ccccn1)(c1cccc2ccccc12)c1cccc2ccccc12 | inactive: 5.27%
8 | Cc1cc(SC(NC=O)C(Cl)(Cl)Cl)ncn1 (stereo not drawn) | inactive: -6.31%
9 | O=[N+]([O-])c1ccc(Nc2ccc(Oc3ccc([N+](=O)[O-])cc3[N+](=O)[O-])cc2)c([N+](=O)[O-])c1 | inactive: 2.74%
10 | CCOC(=O)Nc1cccc([As](=O)(O)O)c1 | inactive: -1.17%
11 | O=C(O)C(=O)c1ccc(N(CCCl)CCCl)cc1 | inactive: -3.42%
12 | O=C(COc1ccccc1)OC1CN2CCC1CC2 (stereo not drawn) | inactive: 3.8%
13 | O=C(Nc1ccncc1[N+](=O)[O-])c1ccc([N+](=O)[O-])cc1[N+](=O)[O-] | inactive: -5.53%
14 | COP1(=S)c2c(C)nn(CCC#N)c2N=C(c2ccc(F)cc2)N1C (stereo not drawn) | inactive: 4.07%
15 | COC(=O)C1(C)COP(=O)(N2CCCC2)OC1 (stereo not drawn) | inactive: 5.24%
16 | CCC(C)N(CC(C)C)C(=S)SC(NC(C)=O)C(Cl)(Cl)Cl (stereo not drawn) | inactive: -6.5%
17 | O=C(OC1CN2CCC1CC2)c1cccc([N+](=O)[O-])c1 (stereo not drawn) | inactive: -7.82%
18 | CCOC(=O)c1ccc(NC(=O)C(C)(CCl)SC)cc1 (stereo not drawn) | inactive: 8.95%
19 | O=P1(N(CCCl)CCCl)Nc2ccccc2N1 | inactive: -33.7%
20 | O=P1(N(CCCl)CCCl)OCCCN1CCCl (stereo not drawn) | inactive: -3.93%
21 | COc1ccc2nc(NP(=O)(c3ccccc3)c3ccccc3)sc2c1 | inactive: 0.3%

Row | SMILES | inhibition
22 | COc1cc(I)ccc1[As](=O)(O)O | inactive: 6.86%
23 | Cc1c2c(nc3ccccc13)SC(C(Cl)Cl)C2 (stereo not drawn) | inactive: -6.37%
24 | O=C(OC1CN2CCC1CC2)C12CC3CC(CC(C3)C1)C2 (stereo not drawn) | inactive: 6.09%
25 | Cc1cc(=O)[nH]c(N[N+](=O)[O-])n1 | inactive: -3.92%
26 | O=[N+]([O-])c1cc(Oc2ccc([N+](=O)[O-])cc2C(F)(F)F)cc([N+](=O)[O-])c1 | inactive: -19.5%
27 | COc1ccc(N/C(=N/P(=O)(N2CCOCC2)N2CCOCC2)N2CCOCC2)cc1 | inactive: 0.18%
28 | [N-]=[N+]=NC1CCCCC1NC(=O)c1cc([N+](=O)[O-])cc([N+](=O)[O-])c1 (stereo not drawn) | inactive: 0.56%
29 | Cc1ccc(OP(=O)(Nc2ccc([N+](=O)[O-])cn2)Oc2ccc(C)cc2)cc1 | inactive: -5.02%
30 | Cc1ccc2nc3c(c(C)c2c1)CC(C(Cl)Cl)S3 (stereo not drawn) | inactive: -10.4%
31 | C[As](=O)(O)c1cccc(C(=O)O)c1 | inactive: 5.68%
32 | O=[As](O)(c1ccc(O)cc1)c1ccccc1O | inactive: -1.22%
33 | O=[N+]([O-])c1ccc(-c2cc([N+](=O)[O-])c(O)c([N+](=O)[O-])c2)cc1 | inactive: 5.1%
34 | COc1cc(C(=O)NCC2(N3CCOCC3)CCCCC2)ccc1OCC(C)C | inactive: -0.95%
35 | CC(C)NC(=O)NP(=O)(Oc1ccccc1)Oc1ccccc1 | inactive: -1.2%
36 | O=C(OC1CN2CCC1CC2)c1cccc2[nH]cnc12 (stereo not drawn) | inactive: -12.8%
37 | CCN(CC)C(=S)SC(NC=O)C(Cl)(Cl)Cl (stereo not drawn) | inactive: 0.15%
38 | ClCCSc1nnc(-c2cccnc2)o1 | inactive: 2.13%
39 | COC(=O)C1(C)COP(=O)(N2CCCCCC2)OC1 (stereo not drawn) | inactive: -4.28%
40 | CC(C)c1ccc(OP(=O)(Nc2ccccn2)Oc2ccccc2F)cc1 (stereo not drawn) | inactive: -4.11%
41 | Nc1ccccc1[As](=O)(O)c1ccccc1 | inactive: 0.71%
42 | O=C(O)COc1ccc([As](=O)(O)O)cc1[N+](=O)[O-] | inactive: 2.29%

Row | SMILES | inhibition
43 | CCOP1(=S)c2c(C)nn(CCC#N)c2N=C(c2ccccc2F)N1C (stereo not drawn) | inactive: 7.02%
44 | O=P(Nc1nccs1)(Oc1ccccc1)Oc1ccccc1 | inactive: -2.56%
45 | N#CCCN(C(=O)COC(=O)C(O)(c1ccccc1)c1ccccc1)c1ccc(F)cc1 | inactive: -1.24%
46 | CN(C(=O)Cc1ccccc1)[C@@H]1CC[C@]2(CCCO2)C[C@H]1N1CCCC1 | inactive: -4%
47 | CCOP1(=S)c2c(C)nn(CCC#N)c2N=C(c2ccc(F)cc2)N1C (stereo not drawn) | inactive: -7.6%
48 | O=[N+]([O-])c1ccc2c(c1)nnn2O | inactive: 1.06%
49 | CN(C)C(=O)c1cc([N+](=O)[O-])cc2c1-c1c(cc([N+](=O)[O-])cc1[N+](=O)[O-])C2=O | inactive: -3.1%
50 | CN(C(=O)Cc1ccc(Cl)c(Cl)c1)[C@H]1CC[C@@]2(CCCO2)C[C@@H]1N1CCCC1 | inactive: -4.8%
51 | NC(=O)Nc1ccc([As](=O)(O)O)cc1 | inactive: -4.09%
52 | Cc1cccc(OCC(=O)OC2CN3CCC2CC3)c1 (stereo not drawn) | inactive: 7.72%
53 | O=[As](O)(c1cccc(O)c1)c1cccc(O)c1 | inactive: 0.74%
54 | O=C(OC1CN2CCC1CC2)c1ccc(Cl)cc1 (stereo not drawn) | inactive: -6.86%
55 | O=[As](O)(O)c1cccnc1 | inactive: -2.08%
56 | COc1cc(C(=O)NCC2(N3CCOCC3)CCCCC2)cc(Cl)c1OC(C)C | inactive: -4.22%
57 | CS(=O)(=O)c1ccc(Cl)c(NC(=O)COC(=O)C(O)(c2ccccc2)c2ccccc2)c1 | inactive: 9.43%
58 | COc1cc(C2NCCC3(OCCO3)C2(C)C)cc(OC)c1OC (stereo not drawn) | inactive: -8.37%
59 | CCOP(=O)(Nc1cccc2ccccc12)OCC | inactive: -12.7%
60 | Nc1cccc2c([As](=O)(O)O)cccc12 | inactive: -29.2%
61 | Cc1ccc(NCCc2c([N+](=O)[O-])cc([N+](=O)[O-])cc2[N+](=O)[O-])cc1 | inactive: 13.6%
62 | CCCOP(=S)(Nc1nc(N)cc(=O)[nH]1)OCCC | inactive: 6.98%
63 | O=P1(N(CCCl)CCCl)NCCC(C(F)(F)F)O1 (stereo not drawn) | inactive: -13.6%
